For test [1], the target named is Delta-type opioid receptor (Homo sapiens) (UniProt P41143). Briefly: % stimulation of GTPgammaS binding in cloned human Opioid receptor delta 1 transfected into hamster ovary cells with respect to DPDPE. (In general: GTPγS resists hydrolysis and so accumulates on activated G proteins.)
Test [2] has as its target Kappa-type opioid receptor (Homo sapiens) (UniProt P41145). Briefly: % stimulation of GTPgammaS binding in cloned human Opioid receptor kappa 1 transfected into hamster ovary cells with respect to U-69,593.
In test [3] the target is Mu-type opioid receptor (Homo sapiens) (UniProt P35372). Briefly: % stimulation of GTPgammaS binding in cloned human Opioid receptor mu 1 transfected into hamster ovary cells with respect to DAMGO.

Protein sequences, listed by entry. Tags and fused reporters are not part of them.
UniProt P41143, whole entry: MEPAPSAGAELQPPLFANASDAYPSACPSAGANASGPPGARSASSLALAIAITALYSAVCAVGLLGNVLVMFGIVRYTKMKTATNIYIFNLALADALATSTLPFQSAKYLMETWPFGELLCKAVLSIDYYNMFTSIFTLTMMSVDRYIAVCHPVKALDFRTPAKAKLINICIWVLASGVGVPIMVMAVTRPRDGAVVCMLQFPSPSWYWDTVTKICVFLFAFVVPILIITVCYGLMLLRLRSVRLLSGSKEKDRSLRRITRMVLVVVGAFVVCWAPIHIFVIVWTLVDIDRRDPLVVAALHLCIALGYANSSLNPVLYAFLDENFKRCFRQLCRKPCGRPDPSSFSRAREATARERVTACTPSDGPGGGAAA
UniProt P41145, whole entry: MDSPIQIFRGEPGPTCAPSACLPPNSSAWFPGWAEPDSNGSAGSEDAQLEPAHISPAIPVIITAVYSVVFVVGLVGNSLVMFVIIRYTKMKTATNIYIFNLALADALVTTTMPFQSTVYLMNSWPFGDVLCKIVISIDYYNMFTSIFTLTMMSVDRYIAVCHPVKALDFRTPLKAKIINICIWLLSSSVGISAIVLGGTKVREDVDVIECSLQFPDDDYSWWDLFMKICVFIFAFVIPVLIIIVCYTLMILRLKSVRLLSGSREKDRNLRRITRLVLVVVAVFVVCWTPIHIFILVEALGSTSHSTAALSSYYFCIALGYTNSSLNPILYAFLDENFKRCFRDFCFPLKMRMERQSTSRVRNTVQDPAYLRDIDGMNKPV
UniProt P35372, whole entry: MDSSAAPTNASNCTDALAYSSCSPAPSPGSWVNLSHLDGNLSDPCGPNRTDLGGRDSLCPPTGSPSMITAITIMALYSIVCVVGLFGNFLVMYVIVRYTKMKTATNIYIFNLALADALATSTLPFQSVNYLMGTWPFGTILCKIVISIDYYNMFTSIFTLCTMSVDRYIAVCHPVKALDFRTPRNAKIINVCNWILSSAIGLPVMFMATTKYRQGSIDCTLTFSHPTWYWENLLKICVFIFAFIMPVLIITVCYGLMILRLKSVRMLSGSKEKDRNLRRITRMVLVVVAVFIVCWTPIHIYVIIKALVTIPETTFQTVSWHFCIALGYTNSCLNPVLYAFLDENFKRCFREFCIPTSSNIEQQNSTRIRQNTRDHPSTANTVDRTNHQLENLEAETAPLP

In the case of `CO[C@]12C=CC3(CC14CCC(C)(C)[C@H]4O)C1Cc4ccc(O)c5c4C3(CCN1C)[C@@H]2O5` (stereo not given in full), the Stimulation amounted to 100% in test [1] and 21% in test [2].

Regarding `CO[C@]12C=CC3(CC14CCC(C)(C)[C@H]4O)C1Cc4ccc(O)c5c4C3(CCN1CC1CC1)[C@@H]2O5` (stereo not given in full), the Stimulation in test [3] came to 21%; in test [1], 45.5%; in test [2], 40%.

Turning to `CO[C@]12C=CC3(CC14CCC[C@H]4O)C1Cc4ccc(O)c5c4C3(CCN1CC1CC1)[C@@H]2O5` (stereo not given in full), the values for the Stimulation in test [3], in test [1] and in test [2] were 32%, 104% and 89%, respectively.

Take `CO[C@]12C=CC3(CC14CCC[C@H]4O)C1Cc4ccc(O)c5c4C3(CCN1C)[C@@H]2O5` (stereo not given in full): the Stimulation in test [1] was found to be 111%; in test [2] it was 88%.

The values are drawn from ChEMBL document CHEMBL1133656, “Structural determinants of efficacy for kappa opioid receptors in the orvinol series: 7,7-spiro analogues of buprenorphine” (2000).
